# In patent publication US9637519B2, “Peptide for inducing mast cell-specific apoptosis and use thereof” (CAREGEN CO., LTD., priority 2013, dated 2017):
# What was measured:
# [1] = system: RBL-2H3 rat mast cell lines; settings: inactivation state and activation state through IgE and HSA treatment
# Protocol: First, RBL-2H3 rat mast cell lines (Korean Cell Line Bank, Korea) were cultured in Dulbecco's modified Eagle's medium (DMEM, Gibco, U.S.A.) supplemented with 10% fetal bovine serum (FBS, Sigma) using a flask for tissue culture (SPL, Korea). The cultured cell lines were detached from the bottom of the culture container using a 1% trypsin solution, and then only cell deposits were collected by centrifugation. The cell deposits were again suspended in DMEM culture liquid, placed in each well of a 6-well plate for tissue culture (SPL, Korea) at 1×10^5 cells per well, and then cultured for 24 h under conditions of 37° C. and 5% CO2. After 24 h, the medium was exchanged with the same culture liquid. […] After the completion of the culture, the culture supernatant fluid was removed, the cultured cell lines were detached from the bottom of the culture container using a 1% trypsin solution, and then only cell precipitates were collected by centrifugation. The cells were stained using an Annexin V-PI staining kit (BD pharmigen), and then FL1 and FL2 intensities were measured using flow cytometry, FACS. Annexin V-positive apoptotic cells were counted (see FIG. 2a).
# beta-hexosaminidase = settings: IgE 1 μg/ml sensitized, HSA 1 μg/ml stimulated; peptide 1 and 10 μg/ml; absorbance 405 nm
# Protocol: In the culture of RBL-2H3 cells sensitized by IgE treatment (1 μg/ml) for 16 h, the existing culture medium was removed and exchanged with a tyrode buffer. […] In addition, in order to measure the activity of beta-hexosaminidase, the degree of color development after a reaction with a substrate, p-N-acetyl-glucosamine (NAG; SIGMA, USA) was determined by measuring the absorbance at 405 nm using a spectrophotometer (see FIG. 3b).
substance,measurement,setting,value
Trp-Val-Pro-Tyr-Gln-Ala-Arg-Val-Pro-Tyr-Pro-Arg (WVPYQARVPYPR; Sema3A peptide 1) [peptide of the present invention],"activity to induce mast cell-specific apoptosis, activated versus inactivated state",[1],more remarkable in the activated mast cells
same,beta-hexosaminidase secreted due to the activation of mast cells,beta-hexosaminidase,effects of inhibiting histamine and beta-hexosaminidase
